AlphaSeq binding of Ab-14 heavy chain variants to a spike HR2 peptide

Target: peptide PDVDLGDISGINAS, taken from heptad repeat 2 (HR2) of SARS-CoV-2 spike.

Parent scFv Ab-14: VH joined to VL by a (GGGGS)3 linker. Changes lie in the heavy chain CDRs alone.
VH: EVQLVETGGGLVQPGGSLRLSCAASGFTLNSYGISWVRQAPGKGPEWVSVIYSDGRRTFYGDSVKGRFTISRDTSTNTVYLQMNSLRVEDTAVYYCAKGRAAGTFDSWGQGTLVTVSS
VL: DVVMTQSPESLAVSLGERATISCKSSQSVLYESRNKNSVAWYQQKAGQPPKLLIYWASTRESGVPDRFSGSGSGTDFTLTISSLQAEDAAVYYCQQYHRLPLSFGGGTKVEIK

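These sequences belong to a second round, designed from the earlier measurements on random variants of the parent. Group labels follow the data file (Ctrl: baseline library sampled from a position-specific scoring matrix, with some repeated check sequences; Rand: our label for a block that the file lists under HC and that is probably the random mutants of the ten best first-round binders; En: ensemble of fine-tuned language models; GP: Gaussian process model; GPLM: also part of the Gaussian process libraries; HC: hill climbing; Gen: genetic algorithm; Gibbs: Gibbs sampling; a sequence that several methods proposed may carry one label only). In AlphaSeq, yeast of one mating type display the scFv and yeast of the other type display the target. Binding brings cells together so that they mate, and sequencing counts the barcode pairs among the diploids. A regression on co-assayed BCL2-family reference pairs converts the normalised counts of each replicate to an apparent Kd. The assay was run in six technical replicates.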

Variants are written as CDR1, CDR2 and CDR3 of the heavy chain (limits as in the source). Parent: GFTLNSYGIS, VIYSDGRRTFYGDSVK, GRAAGTFDS.
Affinities are written as log10 Kd with Kd in nM; a lower number is a better binder.
The mean shown is taken over the replicates in which the pair was detected.
"nd" marks a missing value. The strain was present, yet no cells mated with the target were sequenced in any replicate, which points to weak or no binding.
Three control strains display no target. For all heavy chain designs, 1% of the pairings with them gave a signal, with a median of 2.08 and one signal in twenty below 0.84, so weak values seen in few replicates may be background.
The authors averaged sequences with at least three values out of six and counted those with two or fewer as poor binders.
Of ten entries with the parent sequence, four were seen in most replicates (averages 0.34 to 2.37), three in one and three in none, so single entries are noisy.
Where one sequence has several entries in the source, the replicates are pooled.
Values of this round are not directly comparable with the first-round values of the same sequences.

CDR-H1 | CDR-H2 | CDR-H3 | group | mean log10 Kd (nM) | detected
GFNLNSYGIS | VIYSDGRRTFYGDSVK | NRAAGIFRS | Ctrl | nd | 0 of 6
GFDLEDYGIS | VIYADGRRTAYADSVK | GNVAGTFDS | En_HC | -0.72 | 6 of 6
GFDLNSYGIS | VIYSDGRRTVYGDSVK | GREAGTFDS | GPLM_Gibbs | 0.26 | 6 of 6
GFDLNEYGIS | VIYADGMRTYYADSVK | GANAGTFDV | En_Gen | -0.73 | 6 of 6
GFTLNSYGIS | VIYSDGRRTWYHDSVK | GRAAGTFDS | Ctrl | 1.06 | 5 of 6
KFSLNSYGIS | VIYSDGRRTFYVDSVK | GRTAGTFDS | GPLM_Gibbs | nd | 0 of 6
GFGLNEYGIS | VIYSDGRRTFYGDSVK | GQAAGTFDS | GPLM_Gibbs | 0.34 | 6 of 6
GFTLNQYGIS | VIYSDGRRTFYTDSVK | GRFAGTFDS | Rand | 0.09 | 6 of 6
GFSLNSYGIS | VIYSDGRRTFYADNVK | GTAAGTFDS | GPLM_Gen | -0.81 | 6 of 6
GFGLNSYGIS | VIYADGRRTFYGDSVK | GRAMGTFDS | Ctrl | nd | 0 of 6
GFELNSYGIS | VIYSDGRRTFYSDSVK | GRNAGTFDS | GPLM_Gen | 0.35 | 6 of 6
GDNLDEYGIS | VIYADGQRTAYDDPVK | GGQGGTVMV | En_Gibbs | nd | 0 of 6
GFTLNSYGIS | VIYSDGRRVFYGDSVK | GRQAGTFDS | Ctrl | 2.32 | 5 of 6
GFDLNEYGIS | VIYADGLRTAYADSVK | GENAGTFDL | En_Gen | -0.77 | 6 of 6
GFTLNSYGIS | VIYSDGRRTFYADSVK | GALAGTFDS | GP_HC | 0.34 | 6 of 6
GFELNSYGIS | VIYSDGKRTFYGDSVK | GQTAGTFDS | GPLM_Gibbs | 0.02 | 6 of 6
GFDLNSYGIS | VIYSDGRRTFYGDSVK | GRAAWTFNQ | GP_HC | nd | 0 of 6
GFILNDYGIS | VIYYDGRRTNYGDIVK | PRAALTFIS | Rand | nd | 0 of 6
GFSLNSYGIS | VIYSDGRRTFYGDSVK | GQAAGTFDN | GPLM_Gen | 0.46 | 4 of 6
GFDLNEYGIS | VIYADGRRTAYSDSVK | GTVAGTFDS | En_HC | -0.68 | 6 of 6
GFDLNSYGIS | VIYSDGRRTFYADPVK | GQAAGTFDS | GPLM_Gen | 0.14 | 6 of 6
GDNINEYGIS | VIYADGLRKQYAENVK | GYLAGTLDE | En_Gibbs | 0.59 | 1 of 6
GFALNEYGIS | VIYSDGRRTFYGDSVK | GRVAGTFDS | GP_Gibbs | -0.17 | 6 of 6
GFNLNSYGIS | VIYADGRRTFYSDSVK | DRAAGRFDS | Ctrl | nd | 0 of 6
GFDINEYGIS | VIYADGMRTGYQQQVK | GYHSGGLNQ | En_Gibbs | nd | 0 of 6
GFDLNSYGIS | VIYSDGRRTFYGDPVK | GQAAGTFDS | GP_Gibbs | 1.06 | 5 of 6
GFDLDEYGIS | VIYADGKRTAYSDSVK | GEVAGTFDI | En_Gen | 0.03 | 6 of 6
GFDLNEYGIS | VIYADGVRTAYSDSVK | GNTAGTFDV | En_Gen | -0.24 | 6 of 6
GFDLGEYGIS | VIYADGQRAAYAQQFK | GEAGGAFDL | En_Gibbs | -0.45 | 6 of 6
GFDLNEYGIS | VIYADGSRKAYADSVK | GNVAGTFDV | En_Gen | -0.16 | 6 of 6
GFDLNEYGIS | VIYADGRRTFYTDSVK | GATAGTFDQ | En_HC | -0.75 | 6 of 6
GFTLNSYGIS | VIYADGRRTFYTDSVK | GRAAGTFDS | Ctrl | 0.36 | 6 of 6
GFDLNSYGIS | VIYSDGRRTFYGDSVK | GRAAGTFDW | Ctrl | 1.80 | 2 of 6
GFTLNSYGIS | VIYSDGRRTFYSDSVK | GSAGGTFDS | GPLM_HC | 1.84 | 6 of 6
GFSINSYGIS | VIYGDGRRTFYGDSVS | GSVAGTFDS | Ctrl | 1.21 | 6 of 6
GFDLNEYGIS | VIYADGRRTFYADSVK | GKEAGTFDQ | En_HC | -0.61 | 6 of 6
GFDLNEYGVS | VIYADGSRSAYTSSVK | GVGNLDIMI | En_Gibbs | nd | 0 of 6
GFDLNEYGIS | VIYADGMRTAYSDDVK | GGNAGTFDV | En_Gen | -0.66 | 6 of 6
GFDLDEYGIS | VIYADGRRTFYIDSVK | GEAAGTFVM | En_HC | 0.39 | 3 of 6
GFTLNSYGIS | VIYSDGRRTFYGDSVK | GRVAGSFTT | GP_HC | nd | 0 of 6
GFDLDEYGIS | VIYADGKRTFYADSVK | GENAGTFDM | En_HC | -0.33 | 6 of 6
GFDLDEYGIS | VIYADGMRTAYADSVK | GNEAGTFDV | En_Gen | -0.20 | 6 of 6
GFSINSYGIS | VIYSDGRRTFYGDSVK | GRAAGTFSW | Ctrl | nd | 0 of 6
GFDLNSYGIS | VIYSDGRRTFYADAVK | GRTAGTFDS | GPLM_Gibbs | 0.57 | 6 of 6
GFDLGEYGIS | VIYADGSRVSYAQKVK | GKNDAISYV | En_Gibbs | nd | 0 of 6
GFDLNEYGIS | VIYADGMRQAYADSVK | GNVAGTFDI | En_Gen | -0.34 | 6 of 6
GFDLNEYGIS | VIYADGMRKAYSDSVK | GNVAGTFDI | En_Gen | -0.32 | 6 of 6
GFDLEDYGIS | VIYADGRRTFYSDSVK | GEIAGTFDF | En_HC | -0.36 | 6 of 6
GFHLNSYGIS | VIYSDGRRTFYDDSVK | GLLAGTFDS | GP_HC | 1.26 | 1 of 6
GFTLNSYGIS | VIYSDGRRTFYTDSVK | GQAAGTFDS | Ctrl+GPLM_Gen | 1.75 | 6 of 12
GFTLNDYGIS | VIYSDGRRTFYLDSVR | GRAAFTFDQ | Ctrl | nd | 0 of 6
GFSLDEYGIS | VIYADGRRTFYSDSVK | GSTAGTFDV | En_HC | -0.16 | 6 of 6
GFQLNSYGIS | VIYSDGRRTFYADQVK | GQTAGTFDS | GP_Gibbs | 0.58 | 1 of 6
GFSLNSYGIS | VIYSDGRRTFYADSVK | GQTAGTFDL | GPLM_Gen | -0.02 | 6 of 6
GFSLNSYGIS | VIYSDGRRTFYGDSVK | GQEAGTFDK | GP_Gibbs | -0.09 | 6 of 6
GFDLNEYGIS | VIYADGSRTAYADSVK | GQNAGTFDM | En_Gen | 0.06 | 6 of 6
GFDINEYGIS | VIYADGQRTFYADSVK | GQTAGTFDV | En_HC | -0.42 | 6 of 6
GFDLNEYGIS | VIYADGRRTAYADSVK | GEAAGTFDT | En_HC | -0.16 | 6 of 6
GYNIDEYGIS | VIYADGQRTAYQNSVK | GEQAGIDMY | En_Gibbs | nd | 0 of 6
GFDLDEYGIS | VIYADGRRTFYQDSVK | GQAAGTFDQ | En_HC | -0.82 | 6 of 6
GDDLEEYGIS | VIYADGMRTYYSDSVK | GNVNGTFFD | En_Gibbs | nd | 0 of 6
GFTLLSYGIS | VIYSDGLRTFYGHSVK | GRTHGTFDS | Ctrl | nd | 0 of 6
GFTLNEYGIS | VIYSDGRRTFYGDSFK | GRAAVTFDQ | Rand | nd | 0 of 6
GFKLDEYGIS | VIYADGRRTFYADSVK | GNVAGTFDQ | En_HC | -0.73 | 6 of 6
GFDLNEYGIS | VIYADGKRTFYSDSVK | GNAGGTFDM | En_HC | -0.18 | 6 of 6
GFTLESYGIS | VIYSDGRRTFYGDSVK | GRAAGTFSS | Ctrl | nd | 0 of 6
GFSLNSYGIS | VIYSDGRRTFYIDSVK | GKLAGTFDS | GPLM_Gibbs | 0.96 | 1 of 6
GFDLNEYGIS | VIYADGSRTFYTDSVK | GENAGTFDV | En_HC | -0.31 | 6 of 6
GFDINEYGIS | VIYADGQRTAYADSVK | GNVAGTFDV | En_Gen | -0.44 | 6 of 6
GFNLNEYGIS | VIYADGMRTFYTDSVK | GETAGTFDM | En_HC | 0.06 | 6 of 6
GFNLNSYGIS | VIYSDGRRTFYGDSVK | GRMAGTFDT | GP_Gen | 1.02 | 6 of 6
GFDLDEYGIS | VIYADGMRTAYTDSVK | GENAGTFDV | En_Gen | 0.21 | 4 of 6
GFDLNEYGIS | VIYADGRRTAYADSVK | GQVAGTFDV | En_Gen | -0.42 | 6 of 6
GFKLNEYGIS | VIYSDGRRTFYGDSVK | GRTAGTFDT | GP_Gen | -0.29 | 6 of 6
GFDLNEYGIS | VIYADGRRTFYADSVK | GQGAGTFDL | En_HC | -0.25 | 6 of 6
GFDLNEYGIS | VIYADGRRTFYADSVK | GNNAGTFDI | En_Gen | -0.19 | 6 of 6
GFTLNDYGIS | VIYSDGRRTFYGDSVK | GRHAGTFDT | GPLM_Gen | 0.43 | 6 of 6
GFTLNDYGIS | VIYSDGRRTFYGAGVK | GRAALTFIS | Rand | nd | 0 of 6

12 of these entries, quoted again:

CDR-H1	CDR-H2	CDR-H3	group	mean log10 Kd (nM)	detected
GFSLNSYGIS	VIYSDGRRTFYADSVK	GQTAGTFDL	GPLM_Gen	-0.02	6 of 6
GFDLNEYGIS	VIYADGVRTAYSDSVK	GNTAGTFDV	En_Gen	-0.24	6 of 6
GFSLNSYGIS	VIYSDGRRTFYADNVK	GTAAGTFDS	GPLM_Gen	-0.81	6 of 6
GFALNEYGIS	VIYSDGRRTFYGDSVK	GRVAGTFDS	GP_Gibbs	-0.17	6 of 6
GFDLNSYGIS	VIYSDGRRTFYADAVK	GRTAGTFDS	GPLM_Gibbs	0.57	6 of 6
GFNLNEYGIS	VIYADGMRTFYTDSVK	GETAGTFDM	En_HC	0.06	6 of 6
GFTLNSYGIS	VIYSDGRRTWYHDSVK	GRAAGTFDS	Ctrl	1.06	5 of 6
GFNLNSYGIS	VIYSDGRRTFYGDSVK	GRMAGTFDT	GP_Gen	1.02	6 of 6
GFDLNEYGIS	VIYADGRRTAYADSVK	GEAAGTFDT	En_HC	-0.16	6 of 6
GFELNSYGIS	VIYSDGKRTFYGDSVK	GQTAGTFDS	GPLM_Gibbs	0.02	6 of 6
GFSLNSYGIS	VIYSDGRRTFYGDSVK	GQAAGTFDN	GPLM_Gen	0.46	4 of 6
GFKLDEYGIS	VIYADGRRTFYADSVK	GNVAGTFDQ	En_HC	-0.73	6 of 6

Source: Li et al. 2023 (doi:10.1038/s41467-023-39022-2), MIT Lincoln Laboratory and A-Alpha Bio; data file from the FLAb repository.